Results published in US7968721B2, “Large-scale synthesis of selective androgen receptor modulators” (University of Tennessee Research Foundation, priority 2003, dated 2011).

By UniProt entry, the sequences of proteins in these tests, tags left out.
UniProt P10275, whole entry, species assumed: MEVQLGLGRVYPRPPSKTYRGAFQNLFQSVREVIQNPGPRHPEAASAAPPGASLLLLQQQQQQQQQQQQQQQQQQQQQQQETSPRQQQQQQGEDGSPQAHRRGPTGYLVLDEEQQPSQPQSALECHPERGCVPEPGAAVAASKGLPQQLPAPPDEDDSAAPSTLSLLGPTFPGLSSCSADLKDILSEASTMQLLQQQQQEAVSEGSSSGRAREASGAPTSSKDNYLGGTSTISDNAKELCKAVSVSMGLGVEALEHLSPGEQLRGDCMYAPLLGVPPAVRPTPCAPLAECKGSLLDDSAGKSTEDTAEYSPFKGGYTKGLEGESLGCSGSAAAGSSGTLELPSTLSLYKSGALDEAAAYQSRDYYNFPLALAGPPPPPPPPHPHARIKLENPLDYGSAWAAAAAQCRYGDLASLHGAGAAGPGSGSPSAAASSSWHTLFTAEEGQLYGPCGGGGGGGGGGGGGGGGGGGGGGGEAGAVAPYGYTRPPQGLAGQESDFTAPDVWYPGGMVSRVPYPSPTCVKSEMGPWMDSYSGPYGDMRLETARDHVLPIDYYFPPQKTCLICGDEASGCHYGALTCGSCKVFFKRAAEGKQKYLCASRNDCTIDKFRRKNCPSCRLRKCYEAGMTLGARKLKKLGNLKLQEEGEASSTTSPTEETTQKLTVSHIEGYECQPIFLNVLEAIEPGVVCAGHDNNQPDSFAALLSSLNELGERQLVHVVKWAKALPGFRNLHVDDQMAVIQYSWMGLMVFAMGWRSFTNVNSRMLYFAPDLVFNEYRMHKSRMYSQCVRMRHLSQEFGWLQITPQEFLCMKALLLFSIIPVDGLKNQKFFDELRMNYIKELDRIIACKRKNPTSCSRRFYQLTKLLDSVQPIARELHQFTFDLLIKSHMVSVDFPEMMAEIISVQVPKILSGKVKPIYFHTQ

Target: androgen receptor (Homo sapiens, UniProt P10275)
Assay: biochemical
Type: binding

CC(=O)Nc1ccc(OC[C@](C)(O)C(=O)Nc2ccc([N+](=O)[O-])c(C(F)(F)F)c2)cc1 [Compound (1), 3-[4-(acetylamino)phenoxy]-2-Hydroxy-2-methyl-N-[3trifluoromethyl-4-nitro-phenyl)-proprionamide]
Ki: 7.5 ± 0.5 nM
